# Patent US20250281645A1, “Lentiviral Vector” (Ospedale San Raffaele S.r.l., priority 2022, published 2025)
# Tested on: Alb-F8*R593C mice
# Conditions: mouse, in vivo
smiles,measurement,value
CC(C)C[C@H](NC(=O)[C@H](Cc1ccccc1)NC(=O)c1cnccn1)B(O)O [Bortezomib],VCN in sorted hepatocytes versus LV only,no increase
same,VCN of KC versus LV only,trend of decrease
same,VCN of pDC versus LV only,trend of decrease
same,circulating hFVIII amounts versus LV only,higher
